# From PubChem BioAssay AID1768 (National Center for Advancing Translational Sciences (NCATS), 2009)
# Protein sequences, listed by entry. Tags and fused reporters are not part of them.
# UniProt O00255, whole entry: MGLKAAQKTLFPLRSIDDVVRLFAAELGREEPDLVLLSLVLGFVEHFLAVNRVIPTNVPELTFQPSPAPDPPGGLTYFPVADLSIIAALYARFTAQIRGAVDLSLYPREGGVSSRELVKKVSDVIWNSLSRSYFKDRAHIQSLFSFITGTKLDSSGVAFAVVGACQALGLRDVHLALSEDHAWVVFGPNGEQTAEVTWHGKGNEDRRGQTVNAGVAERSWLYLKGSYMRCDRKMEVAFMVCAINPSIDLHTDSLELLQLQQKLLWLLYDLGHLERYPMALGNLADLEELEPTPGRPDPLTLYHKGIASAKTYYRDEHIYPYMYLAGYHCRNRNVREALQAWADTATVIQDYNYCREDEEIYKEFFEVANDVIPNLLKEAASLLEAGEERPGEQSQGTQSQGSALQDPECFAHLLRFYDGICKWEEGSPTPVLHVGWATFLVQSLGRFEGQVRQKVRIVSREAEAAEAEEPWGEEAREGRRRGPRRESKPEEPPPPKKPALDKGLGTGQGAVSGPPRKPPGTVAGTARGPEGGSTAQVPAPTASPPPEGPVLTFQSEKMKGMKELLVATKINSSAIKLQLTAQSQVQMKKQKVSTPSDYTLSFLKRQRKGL
# UniProt Q03164, whole entry partner: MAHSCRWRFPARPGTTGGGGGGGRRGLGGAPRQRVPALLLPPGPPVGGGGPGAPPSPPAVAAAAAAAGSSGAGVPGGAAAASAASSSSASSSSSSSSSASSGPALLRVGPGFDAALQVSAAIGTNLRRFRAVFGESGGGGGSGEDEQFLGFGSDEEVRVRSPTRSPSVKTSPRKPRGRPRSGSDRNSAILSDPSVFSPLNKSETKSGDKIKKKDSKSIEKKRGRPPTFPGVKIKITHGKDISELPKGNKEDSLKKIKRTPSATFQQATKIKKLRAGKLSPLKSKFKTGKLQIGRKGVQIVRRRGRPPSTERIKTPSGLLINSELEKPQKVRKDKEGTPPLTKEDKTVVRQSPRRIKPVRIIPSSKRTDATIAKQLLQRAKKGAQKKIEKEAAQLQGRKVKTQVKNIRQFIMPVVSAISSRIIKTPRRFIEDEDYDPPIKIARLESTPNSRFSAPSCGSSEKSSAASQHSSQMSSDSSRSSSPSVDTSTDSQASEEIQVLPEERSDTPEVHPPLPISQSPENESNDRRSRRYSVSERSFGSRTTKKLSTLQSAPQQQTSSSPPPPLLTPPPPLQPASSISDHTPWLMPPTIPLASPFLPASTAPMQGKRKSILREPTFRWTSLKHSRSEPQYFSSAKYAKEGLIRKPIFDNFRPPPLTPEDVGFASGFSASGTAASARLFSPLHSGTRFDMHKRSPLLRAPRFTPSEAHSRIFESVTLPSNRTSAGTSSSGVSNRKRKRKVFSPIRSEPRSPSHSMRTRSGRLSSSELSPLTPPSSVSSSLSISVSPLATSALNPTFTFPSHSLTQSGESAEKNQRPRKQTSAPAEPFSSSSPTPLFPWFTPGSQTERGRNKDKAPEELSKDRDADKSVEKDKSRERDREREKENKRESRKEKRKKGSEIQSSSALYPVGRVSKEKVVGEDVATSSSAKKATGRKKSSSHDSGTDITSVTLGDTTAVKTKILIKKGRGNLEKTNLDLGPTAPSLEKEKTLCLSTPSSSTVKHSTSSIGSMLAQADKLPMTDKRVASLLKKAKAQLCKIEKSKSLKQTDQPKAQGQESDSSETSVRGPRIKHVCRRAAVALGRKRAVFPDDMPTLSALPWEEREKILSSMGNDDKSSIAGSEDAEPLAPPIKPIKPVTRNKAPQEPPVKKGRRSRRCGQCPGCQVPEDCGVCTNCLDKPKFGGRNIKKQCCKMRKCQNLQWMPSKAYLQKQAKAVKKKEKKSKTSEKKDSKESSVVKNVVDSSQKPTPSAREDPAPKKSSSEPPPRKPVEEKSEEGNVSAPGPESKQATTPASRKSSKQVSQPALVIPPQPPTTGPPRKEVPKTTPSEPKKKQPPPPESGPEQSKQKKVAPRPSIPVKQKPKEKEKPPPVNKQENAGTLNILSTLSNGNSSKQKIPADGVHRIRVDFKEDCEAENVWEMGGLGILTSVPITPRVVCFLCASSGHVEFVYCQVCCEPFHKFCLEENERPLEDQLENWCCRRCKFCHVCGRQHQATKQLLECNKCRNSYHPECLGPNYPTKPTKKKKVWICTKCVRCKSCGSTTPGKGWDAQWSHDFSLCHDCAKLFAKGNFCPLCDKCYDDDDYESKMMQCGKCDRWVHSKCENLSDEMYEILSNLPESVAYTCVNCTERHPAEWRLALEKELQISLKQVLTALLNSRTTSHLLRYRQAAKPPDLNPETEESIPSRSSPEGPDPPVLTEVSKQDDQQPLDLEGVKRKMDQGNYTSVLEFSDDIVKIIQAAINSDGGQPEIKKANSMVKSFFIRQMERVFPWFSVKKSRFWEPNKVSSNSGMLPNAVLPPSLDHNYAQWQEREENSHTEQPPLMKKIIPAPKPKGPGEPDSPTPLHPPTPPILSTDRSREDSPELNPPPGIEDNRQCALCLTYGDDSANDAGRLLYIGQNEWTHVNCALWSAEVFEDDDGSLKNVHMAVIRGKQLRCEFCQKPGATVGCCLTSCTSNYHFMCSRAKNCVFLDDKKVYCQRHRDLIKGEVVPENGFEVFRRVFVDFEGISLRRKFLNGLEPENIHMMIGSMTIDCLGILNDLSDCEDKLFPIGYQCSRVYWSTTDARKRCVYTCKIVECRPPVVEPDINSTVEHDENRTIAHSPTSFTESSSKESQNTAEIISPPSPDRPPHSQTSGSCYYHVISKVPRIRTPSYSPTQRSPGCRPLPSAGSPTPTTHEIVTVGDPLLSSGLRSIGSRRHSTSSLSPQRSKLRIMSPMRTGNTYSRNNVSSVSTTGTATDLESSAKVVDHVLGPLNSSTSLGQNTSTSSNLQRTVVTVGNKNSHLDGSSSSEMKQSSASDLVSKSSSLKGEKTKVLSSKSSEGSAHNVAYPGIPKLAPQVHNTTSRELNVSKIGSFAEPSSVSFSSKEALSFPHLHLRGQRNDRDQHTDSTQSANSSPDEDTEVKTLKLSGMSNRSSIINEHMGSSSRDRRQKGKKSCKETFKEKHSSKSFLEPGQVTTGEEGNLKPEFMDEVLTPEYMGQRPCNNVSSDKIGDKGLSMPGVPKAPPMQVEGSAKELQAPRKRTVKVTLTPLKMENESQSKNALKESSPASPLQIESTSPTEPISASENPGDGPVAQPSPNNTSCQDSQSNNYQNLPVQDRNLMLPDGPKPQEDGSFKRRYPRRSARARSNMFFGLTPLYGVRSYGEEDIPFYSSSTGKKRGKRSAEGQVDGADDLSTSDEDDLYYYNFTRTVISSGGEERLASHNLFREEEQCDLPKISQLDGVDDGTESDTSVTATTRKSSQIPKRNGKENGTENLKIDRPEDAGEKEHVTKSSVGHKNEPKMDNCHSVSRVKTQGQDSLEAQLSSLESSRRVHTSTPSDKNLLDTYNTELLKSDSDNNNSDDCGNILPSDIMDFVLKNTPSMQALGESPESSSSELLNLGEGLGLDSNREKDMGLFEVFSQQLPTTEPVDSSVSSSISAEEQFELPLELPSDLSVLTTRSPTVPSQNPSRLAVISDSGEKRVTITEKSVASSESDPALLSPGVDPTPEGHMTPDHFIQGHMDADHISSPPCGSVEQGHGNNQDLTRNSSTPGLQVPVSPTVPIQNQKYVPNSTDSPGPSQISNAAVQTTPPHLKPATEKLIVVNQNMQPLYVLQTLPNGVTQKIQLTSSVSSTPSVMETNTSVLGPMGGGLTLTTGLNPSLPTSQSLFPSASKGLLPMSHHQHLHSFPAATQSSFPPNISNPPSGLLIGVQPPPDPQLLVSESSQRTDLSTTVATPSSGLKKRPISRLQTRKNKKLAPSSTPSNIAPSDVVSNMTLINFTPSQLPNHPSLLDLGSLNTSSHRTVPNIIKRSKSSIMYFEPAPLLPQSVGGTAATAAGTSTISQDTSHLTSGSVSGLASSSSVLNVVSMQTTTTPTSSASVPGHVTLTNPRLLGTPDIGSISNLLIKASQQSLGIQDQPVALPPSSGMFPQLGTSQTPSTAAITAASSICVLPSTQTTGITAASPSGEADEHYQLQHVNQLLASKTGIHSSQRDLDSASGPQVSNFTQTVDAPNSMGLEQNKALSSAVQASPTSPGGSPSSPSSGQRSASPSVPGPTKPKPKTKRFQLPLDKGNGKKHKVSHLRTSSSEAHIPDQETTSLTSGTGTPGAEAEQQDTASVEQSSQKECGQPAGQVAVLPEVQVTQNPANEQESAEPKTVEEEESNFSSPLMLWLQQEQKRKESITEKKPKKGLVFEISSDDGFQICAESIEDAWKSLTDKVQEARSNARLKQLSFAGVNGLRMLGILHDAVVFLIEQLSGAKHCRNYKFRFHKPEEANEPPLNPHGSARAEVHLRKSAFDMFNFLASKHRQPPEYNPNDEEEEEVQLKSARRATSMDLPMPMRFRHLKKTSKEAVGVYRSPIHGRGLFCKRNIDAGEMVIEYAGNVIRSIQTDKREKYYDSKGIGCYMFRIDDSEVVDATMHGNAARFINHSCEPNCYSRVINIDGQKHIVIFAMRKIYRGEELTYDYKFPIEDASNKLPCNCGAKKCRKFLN
# Only a part is listed here, and it is no random draw. Some tests of the compounds listed are not included; inactive here does not mean inactive elsewhere. Records with an inconclusive call do not appear. The source made the active and inactive calls. The call rests on the fitted dose curve; in most records, active means well fitted inhibition curve with a large enough effect in the polarisation, with a control signal flat (not every such curve was filed as active); inconclusive means small, poorly fitted or top-dose-only effect, or effect the other way, or a change in a side signal; inactive means no such curve, though single readings can be large or run the other way; the % refers to the polarisation.
# Biological target: Menin (Homo sapiens) (UniProt O00255)
# Assay: qHTS Assay for Inhibitors Targeting the Menin-MLL Interaction in MLL Related Leukemias: Competition With Texas Red Labeled MLL-derived Mutant Peptide; further: % of control where 0% means no effect
# Conditions: fluorescence polarization; at 61.6 µM (top of the series)
row,Compound,"FP activity change, negative = inhibition"
1,O=C(NCC1(N2CCCCC2)CCCCC1)c1cc(F)c(F)cc1Cl,inactive: -9.13%
2,C=CCN1CCN(CCOC(=O)C(O)(c2ccccc2)c2ccccc2)CC1,inactive: -0.292%
3,COc1ccc(C(=O)NCC2(N(C)C)CCCCC2)cc1,inactive: -5.04%
4,O=C(NCC1(N2CCCCC2)CCCCC1)c1cccc(Br)c1,inactive: -15.1%
5,Cc1cc(C(=O)NCC2(N3CCCCC3)CCCCC2)ccc1[N+](=O)[O-],inactive: 1.98%
6,CCN1CCCC(OC(=O)C2(O)c3ccccc3C=Cc3ccccc32)C1 (stereo unspecified),inactive: -7.54%
7,CN(C)C1CCCC1OC(=O)C(O)(c1ccccc1)c1ccccc1 (stereo unspecified),inactive: 25.7%
8,CN(C)c1ccc(C(=O)NCC2(N(C)C)CCCCC2)cc1,inactive: -12.5%
9,Cc1ccccc1C(=O)NCC1(N2CCCCC2)CCCCC1,inactive: -3.56%
10,CN1CCCC(OC(=O)C(O)(c2ccccc2)c2ccccc2)C1 (stereo unspecified),inactive: 7.56%
11,COc1cc(SC)ccc1C(=O)NCC1(N(C)C)CCCCC1,inactive: 1.98%
12,O=C(NCC1(N2CCCCC2)CCCCC1)c1cc([N+](=O)[O-])ccc1Cl,inactive: -4.75%
13,CN1[C@@H]2CC[C@H]1CC(OC(=O)C(O)(c1ccccc1)c1ccccc1)C2 (stereo partly specified),inactive: -7.85%
14,CC(C)Oc1ccc(C(=O)NCC2(N(C)C)CCCCC2)cc1,inactive: 1.38%
15,CN(C)c1cccc(C(=O)NCC2(N(C)C)CCCCC2)c1,inactive: 17.3%
16,O=C(OC1CN2CCC1CC2)C(CO)(c1ccccc1)c1ccccc1 (stereo unspecified),inactive: 1.41%
17,COc1ccc(Cl)cc1C(=O)NCC1(N(C)C)CCCCC1,inactive: -13.3%
18,COc1cccc(C(=O)NCC2(N3CCCCC3)CCCCC2)c1,inactive: -15.4%
19,O=C(NCC1(N2CCCCC2)CCCCC1)c1cccc(Cl)c1,inactive: -14%
20,CN(C)C1(CNC(=O)c2ccc(Br)cc2)CCCCC1,inactive: -12%
21,COc1cc(C(=O)NCC2(N(C)C)CCCCC2)c([N+](=O)[O-])cc1OC,inactive: -18.8%
